Test results from patent US8211933B2, “3.3.0 bicyclic GlyT1 inhibitors and methods of making and using same” (Vanderbilt University, priority 2008, dated 2012).

What follows are molecules tested against T1, GlyT1 (Homo sapiens, UniProt P48067) (assay: [14C]-glycine uptake in JAR cells endogenously expressing GlyT1 (Cytostar T scintillation proximity)). Conditions: inhibition of [14C]-glycine uptake (10 μM), 3 h, read-out: Potency (IC50).
T1 construct: Human placental choriocarcinoma cells endogenously expressing GlyT1 can be cultured using standard conditions; host or cells: JAR human placental choriocarcinoma cells
T1 sequence (P48067 1-706): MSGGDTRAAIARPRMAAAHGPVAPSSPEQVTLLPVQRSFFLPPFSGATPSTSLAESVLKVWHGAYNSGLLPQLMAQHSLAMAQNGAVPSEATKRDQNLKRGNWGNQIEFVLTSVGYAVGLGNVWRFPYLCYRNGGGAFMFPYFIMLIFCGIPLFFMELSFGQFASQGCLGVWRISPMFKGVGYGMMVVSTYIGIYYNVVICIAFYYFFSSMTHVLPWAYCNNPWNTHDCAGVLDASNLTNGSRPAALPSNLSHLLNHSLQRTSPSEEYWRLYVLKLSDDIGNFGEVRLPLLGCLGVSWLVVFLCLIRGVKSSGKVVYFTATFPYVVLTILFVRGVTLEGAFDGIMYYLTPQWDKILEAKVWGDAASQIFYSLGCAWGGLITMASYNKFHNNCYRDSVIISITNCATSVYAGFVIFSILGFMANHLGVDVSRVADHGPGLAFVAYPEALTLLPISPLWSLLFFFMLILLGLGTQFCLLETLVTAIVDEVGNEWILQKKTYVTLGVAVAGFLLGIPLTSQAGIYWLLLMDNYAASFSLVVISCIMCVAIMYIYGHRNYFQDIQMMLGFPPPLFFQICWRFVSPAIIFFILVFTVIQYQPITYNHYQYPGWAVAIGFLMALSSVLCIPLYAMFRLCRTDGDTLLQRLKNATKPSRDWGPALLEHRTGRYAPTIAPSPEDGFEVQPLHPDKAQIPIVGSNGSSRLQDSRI
Type: cell-based
Procedure: Human placental choriocarcinoma cells endogenously expressing GlyT1 can be cultured using standard conditions. Cells can then be grown at 37° C. in a humidified atmosphere 40-48 hours before the assay. Culture medium can be removed from the culture plate, and cells can be incubated with an amount of TBlA buffer with or without the compounds of the present invention for a sufficient period of time. Then an amount of [^14C]-glycine diluted with TBlA can be added to each well. After incubation the microplates can be sealed and counted. Non-specific uptake of [^14C]-glycine can be determined in the presence of unlabeled glycine. To determine potencies, a range of concentrations of the compounds of the present invention can be added to the cells, followed by the fixed concentration of [^14C]-glycine. The concentration of the present compound that inhibited half of the specific uptake of [^14C]glycine (IC50 value) can be determined from the assay data by non-linear curve fitting.
The procedure used was analogous to that disclosed in Williams, J. B.; Mallorga P. J.; Lemaire W.; Williams D. L.; Na S.; Patel S.; Conn J. P.; Pettibone D. J.; Austin C.; Sur C.; “Development of a scintillation proximity assay for analysis of Na+/Cl−-dependent neurotransmitter transporter activity,” ANAL. BIOCHEM.
Cells were plated at a density of 1.3×10^4 cells/well and grown at 37° C. in a humidified atmosphere of 5% CO2 for 40-48 h. […] Cytostar T plates were then incubated in the dark at room temperature for 3 h, sealed with opaque white bottom plate seals (Perkin-Elmer) and clear top plate seals (Topseal A, Perkin-Elmer), and were counted on a Top Count (Packard). Glycine uptake was determined by measuring radioactivity in each well and plotted as a function of concentration of test compound. […] Nonspecific uptake of [^14C]-glycine was determined in the presence of 10 mM cold glycine. […]

Row | SMILES | IC50 [nM]
1 | Cn1cnc(S(=O)(=O)N2CC3CCC(NC(=O)c4ccc(Cl)cc4Cl)C3C2)c1 (stereo not drawn) [Compound 7a, 2,4-dichloro-N-(2-(1-methyl-1H-imidazol-4-ylsulfonyl)octahydrocyclopenta[c]pyrrol-4-yl)benzamide] | 25
2 | Cn1cnc(S(=O)(=O)N2CC3CCC(NC(=O)C4CCCCC4)C3C2)c1 (stereo not drawn) [Compound 7k, N-(2-(1-methyl-1H-imidazol-4-ylsulfonyl)octahydrocyclopenta[c]pyrrol-4-yl) cyclohexanecarboxamide] | 617
3 | Cn1cnc(S(=O)(=O)N2CC3CCC(NC(=O)c4ccc(Cl)cc4Cl)C3C2)c1 (stereo not drawn) [Compound 5c + d, 2,4-dichloro-N-(2-(1-methyl-1H-imidazol-4-ylsulfonyl)octahydrocyclopenta[c]pyrrol-4-yl)benzamide] | 34
